Experimental data as given in US9426989B2 (priority 2010, dated 2016).
Only a part of the results on these compounds is given; other tests are left out.

Assay: Stability of the compounds assessed by NMR (PBS, MEM)

For `CCC(OO)OO`, which Degradation (MEM: 24 hours, 5° C.) is on record?
Its Degradation is <5%.

What about the Degradation (MEM: 24 hours, 25° C.) of the same compound?
Its Degradation is 15%.

And the Degradation (MEM: 24 hours, 37° C.)?
Its Degradation is 43%.

And the Degradation (PBS: 16 hours, 2-8° C., then 3 hours at 37° C.)?
Its Degradation is 40%.
